# Molecular target: sucrase (Rattus norvegicus, UniProt P23739)
# Protein sequences, listed by entry. Tags and fused reporters are not part of them. Lines headed by an entry give the natural chain unless they say otherwise; changes in a name come on top.
# UniProt P23739: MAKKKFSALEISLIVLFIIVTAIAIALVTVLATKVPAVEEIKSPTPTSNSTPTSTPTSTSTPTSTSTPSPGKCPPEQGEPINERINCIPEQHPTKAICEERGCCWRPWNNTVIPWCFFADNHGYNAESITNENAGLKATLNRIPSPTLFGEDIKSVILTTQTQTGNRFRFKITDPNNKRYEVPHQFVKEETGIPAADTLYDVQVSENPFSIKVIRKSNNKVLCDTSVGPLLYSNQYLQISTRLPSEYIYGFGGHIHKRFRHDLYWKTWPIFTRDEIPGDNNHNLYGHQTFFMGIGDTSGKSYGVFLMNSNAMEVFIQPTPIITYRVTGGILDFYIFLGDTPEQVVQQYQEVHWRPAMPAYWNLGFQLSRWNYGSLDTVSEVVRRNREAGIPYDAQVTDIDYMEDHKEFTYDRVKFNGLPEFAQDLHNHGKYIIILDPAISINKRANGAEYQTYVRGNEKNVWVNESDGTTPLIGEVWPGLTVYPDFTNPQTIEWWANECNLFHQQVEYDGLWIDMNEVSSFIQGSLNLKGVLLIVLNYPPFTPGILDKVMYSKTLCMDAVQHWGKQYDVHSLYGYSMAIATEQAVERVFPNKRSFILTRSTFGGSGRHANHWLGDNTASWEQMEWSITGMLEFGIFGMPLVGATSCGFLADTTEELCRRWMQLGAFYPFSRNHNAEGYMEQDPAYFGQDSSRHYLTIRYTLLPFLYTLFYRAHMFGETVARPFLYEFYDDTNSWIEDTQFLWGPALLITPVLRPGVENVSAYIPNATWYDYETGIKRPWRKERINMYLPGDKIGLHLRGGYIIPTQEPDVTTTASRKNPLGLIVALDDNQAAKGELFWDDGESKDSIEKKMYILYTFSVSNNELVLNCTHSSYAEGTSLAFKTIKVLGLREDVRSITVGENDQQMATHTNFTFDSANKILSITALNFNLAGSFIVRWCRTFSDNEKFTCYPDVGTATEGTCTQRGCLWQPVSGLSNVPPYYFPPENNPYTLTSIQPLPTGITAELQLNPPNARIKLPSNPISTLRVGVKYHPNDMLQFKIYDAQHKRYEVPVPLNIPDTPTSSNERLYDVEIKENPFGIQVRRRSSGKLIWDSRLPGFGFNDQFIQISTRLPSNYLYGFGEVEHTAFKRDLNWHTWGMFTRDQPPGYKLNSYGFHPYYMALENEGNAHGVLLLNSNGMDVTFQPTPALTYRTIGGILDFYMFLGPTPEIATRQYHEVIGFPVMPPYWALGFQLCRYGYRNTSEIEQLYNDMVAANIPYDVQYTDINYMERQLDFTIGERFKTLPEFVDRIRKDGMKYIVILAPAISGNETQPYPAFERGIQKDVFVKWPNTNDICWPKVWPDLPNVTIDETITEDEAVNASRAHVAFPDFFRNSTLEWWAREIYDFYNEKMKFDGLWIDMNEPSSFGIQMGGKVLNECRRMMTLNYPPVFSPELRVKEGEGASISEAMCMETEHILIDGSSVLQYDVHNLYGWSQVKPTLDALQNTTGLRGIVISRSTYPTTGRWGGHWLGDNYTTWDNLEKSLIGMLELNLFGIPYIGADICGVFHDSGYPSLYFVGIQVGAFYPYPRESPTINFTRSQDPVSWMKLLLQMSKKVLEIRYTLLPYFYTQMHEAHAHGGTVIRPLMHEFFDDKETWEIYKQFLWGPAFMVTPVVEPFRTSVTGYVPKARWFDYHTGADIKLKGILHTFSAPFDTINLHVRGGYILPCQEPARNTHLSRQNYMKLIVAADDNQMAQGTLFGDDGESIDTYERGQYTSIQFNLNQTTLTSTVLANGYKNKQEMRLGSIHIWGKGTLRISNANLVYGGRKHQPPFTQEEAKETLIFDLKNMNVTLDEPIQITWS
# Experiment: In vitro sucrase inhibition (rat intestinal mucosa α-glucosidase, glucose assay kit)
# Conditions: sucrose 50 mmol/L, 37 °C, 20 min
compound,measurement,setting,value
"C[C@H]1O[C@H](O[C@H]2[C@H](O)[C@@H](O)[C@@H](O[C@H]3[C@H](O)[C@@H](O)C(O)O[C@@H]3CO)O[C@@H]2CO)[C@H](O)[C@@H](O)[C@@H]1N[C@H]1C=C(CO)[C@@H](O)[C@H](O)[C@H]1O (some centres unmarked) [acarbose, Acarbose]",IC50,"IC50 against sucrase, Figure 4",0.602 µM
same,IC50,"IC50 for sucrase inhibition, Figure 1",0.647 µM
